For the experiment, the target named is Dipeptidyl peptidase 8 (Homo sapiens, UniProt Q6V1X1). The experiment is described as follows: Inhibition of human recombinant DPP8 assessed as Gly-Pro-pNA chromogenic substrate cleavage for 16 mins preincubated with compound for 10 mins before addition of chromogenic substrate.

Chains of the proteins cited; added tags and fusions are not shown. Lines headed by an entry give the natural chain unless they say otherwise; changes in a name come on top.
UniProt Q6V1X1: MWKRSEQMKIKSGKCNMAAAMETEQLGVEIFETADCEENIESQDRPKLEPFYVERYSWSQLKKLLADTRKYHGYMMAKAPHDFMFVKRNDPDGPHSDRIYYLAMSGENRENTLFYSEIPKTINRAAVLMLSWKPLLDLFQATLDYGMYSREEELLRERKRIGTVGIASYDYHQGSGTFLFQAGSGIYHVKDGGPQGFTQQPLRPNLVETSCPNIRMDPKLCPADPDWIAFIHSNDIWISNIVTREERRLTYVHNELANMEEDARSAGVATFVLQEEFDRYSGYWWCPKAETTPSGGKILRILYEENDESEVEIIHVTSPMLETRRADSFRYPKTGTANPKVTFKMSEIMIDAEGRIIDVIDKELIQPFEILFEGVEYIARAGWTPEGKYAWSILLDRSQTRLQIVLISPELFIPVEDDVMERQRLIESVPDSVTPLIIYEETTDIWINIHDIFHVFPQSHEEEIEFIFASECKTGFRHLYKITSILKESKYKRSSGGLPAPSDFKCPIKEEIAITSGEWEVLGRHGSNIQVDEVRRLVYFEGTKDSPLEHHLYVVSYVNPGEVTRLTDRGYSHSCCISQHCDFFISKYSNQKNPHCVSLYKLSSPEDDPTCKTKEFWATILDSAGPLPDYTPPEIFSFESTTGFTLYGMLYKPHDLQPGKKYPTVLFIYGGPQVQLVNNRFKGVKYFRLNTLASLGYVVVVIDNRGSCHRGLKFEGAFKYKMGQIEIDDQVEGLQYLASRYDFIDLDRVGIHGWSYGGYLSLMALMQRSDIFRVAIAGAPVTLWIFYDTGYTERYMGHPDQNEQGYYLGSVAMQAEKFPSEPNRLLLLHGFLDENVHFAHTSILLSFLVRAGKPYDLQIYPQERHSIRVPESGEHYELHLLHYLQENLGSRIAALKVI

SMILES strings stand for the structures.

One may read the Ki as a measure of affinity in units of concentration, obtained from inhibition or displacement. For the molecule `CC[C@H](C)[C@H](N)C(=O)N1CCC[C@H]1C(=O)N[C@H](C(=O)O)[C@@H](C)CC` [DIPROTIN A], the Ki was 39 µM.

The values above are taken from ChEMBL document CHEMBL1687705, “Design, Synthesis, and in Vitro Evaluation of Novel Aminomethyl-pyridines as DPP-4 Inhibitors” (ACS Med Chem Lett, 2010).
